Results from PMC3934827 (Neuropharmacology, 2014).

How the values were obtained:
[1] = test system: parkinsonian motor effects; assay: Standardized motor disability scale for parkinsonian primates; type: in vivo, Rhesus monkeys (Macaca mulatta); settings: risperidone 0.032 and 0.1 mg/kg s.c.
[2] = test system: cortical-, extrapyramidal motor- and autonomic-mediated functions; assay: Drug Effects on Nervous System; settings: risperidone s.c.; p < 0.001

SMILES: Cc1nc2n(c(=O)c1CCN1CCC(c3noc4cc(F)ccc34)CC1)CCCC2 [risperidone, reference compound]
- social interaction score, in comparison to MP-10 [1]: roughly comparable increases
- DENS salivation, compared with MP-10 [2]: considerably more salivation
